Here are results for 64 compounds from PubChem BioAssay AID1259400 (National Center for Advancing Translational Sciences (NCATS), 2018).

Chains of the proteins cited; added tags and fusions are not shown.
UniProt Q9HBX9, whole entry: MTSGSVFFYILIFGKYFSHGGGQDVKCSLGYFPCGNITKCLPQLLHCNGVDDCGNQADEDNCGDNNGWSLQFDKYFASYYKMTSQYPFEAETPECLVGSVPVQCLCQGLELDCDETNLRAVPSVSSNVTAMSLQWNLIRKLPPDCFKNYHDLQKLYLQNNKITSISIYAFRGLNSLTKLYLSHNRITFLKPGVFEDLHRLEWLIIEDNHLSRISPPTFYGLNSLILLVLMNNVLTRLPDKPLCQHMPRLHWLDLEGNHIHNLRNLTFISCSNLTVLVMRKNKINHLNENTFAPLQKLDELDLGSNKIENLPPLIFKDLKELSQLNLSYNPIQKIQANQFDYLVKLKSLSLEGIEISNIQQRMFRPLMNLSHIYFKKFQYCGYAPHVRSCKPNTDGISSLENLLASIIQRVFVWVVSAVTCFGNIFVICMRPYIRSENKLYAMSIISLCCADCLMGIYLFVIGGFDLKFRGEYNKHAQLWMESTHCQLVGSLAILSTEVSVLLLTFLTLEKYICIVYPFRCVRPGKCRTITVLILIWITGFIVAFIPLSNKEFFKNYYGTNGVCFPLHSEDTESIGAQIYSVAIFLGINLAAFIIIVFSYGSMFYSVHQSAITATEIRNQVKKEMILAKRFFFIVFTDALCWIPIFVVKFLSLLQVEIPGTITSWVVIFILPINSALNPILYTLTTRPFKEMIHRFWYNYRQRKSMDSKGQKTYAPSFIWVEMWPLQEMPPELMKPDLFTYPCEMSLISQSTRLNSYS

The list shows a part of the results, in another mix than the full data. Active and inactive are the calls of the source.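 Rule for the calls: active = activity change of -60% or lower, but not beyond a set lower limit; inconclusive = change between -60% and -40%, or beyond the set limit; inactive = change above -40%.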

This assay addresses Relaxin receptor 1 (Homo sapiens) (UniProt Q9HBX9). The assay can be described thus: qHTS Assay for Antagonists of the Relaxin Receptor RXFP1. Particulars: HEK293-RXFP1, relaxin-stimulated cAMP HTRF, 30 min; at 57.5 µM; hits give low values. The source says:
The relaxin hormone is involved in the variety of biological functions in normal tissues and diseases. The role of relaxin is well-established in female reproduction and parturition, mammary gland and endometrial development, maintenance of myometrial quiescence during pregnancy. Relaxin signaling through its G protein-coupled receptor (GPCR) RXFP1 results in ECM remodeling through regulation of collagen deposition, cell invasiveness, proliferation and overall tissue homeostasis. […] Recombinant human relaxin (rhRlx) is currently being tested in clinical trials as a protective agent in congestive heart failure, in treating severe preeclampsia, and as an anti-fibrotic agent in various organs. […] Upon relaxin binding RXFP1 activation leads to the activation of adenylate cyclase (AC) via G?s. cAMP will activate PKA, which phosphorylates many signaling proteins. Thus, detection of cAMP increase is an easy and reliable indication of relaxin receptor activation. To screen for antagonists of the relaxin receptor, a HEK293T cell line stably transfected with RXFP1 was used. RXFP1 activation by relaxin in presence of various concentrations of tested compounds was assayed by changes in cAMP levels as detected with a time-resolved fluorescence energy transfer (TR-FRET) cAMP detection kit.
For the primary screening, we used HTRF(R) (Homogenous Time-Resolved Fluorescence) cAMP HiRange assay (Cisbio Bioassays, 62AM6PEJ). Presence of cAMP in the cell lysate disrupts binding between the Cryptate-labeled anti-cAMP and d2-labeled cAMP pair, leading to a decrease in TR-FRET signal. The libraries were screened at two doses (57microM and 11microM), followed by a confirmation of the hits at 7-point serial dilution in the range of final concentrations [57microM - 78nM]. Data were normalized to the controls for basal activity (buffer only) and 100% activity (5 nM porcine relaxin). The EC50 values were determined from concentration-response data modeled with the standard Hill equation. NCGC Assay Protocol Summary: HiHEK (Hawaiian HEK293 LGR7 stably transfected with human RXFP1) were grown in the following media: DMEM+10%FBS+Pen/Strep + Geneticin (1mg/ml). For the assay, the cells were seeded in DMEM+Pen/Strep (with no serum & selective antibiotics) at 2,100 cells/ 3microl/well with MultiDrop Combi dispenser (Thermo Scientific, Logan, UT) onto white tissue culture treated solid bottom1536-well plates (Greiner #789173-F) and allowed to attach/recover overnight at 37 degrees C, 5% CO2. Next, 23nl/well of compound solutions in DMSO were transferred into wells with a pintool (Kalypsis, San Diego, CA). […] EC80 (relaxin at 50pM final concentration) was dispensed to the rest of the plate except columns 1&2 which were used as a negative control (EC0, buffer only), 1microl/well also. The cells were stimulated by relaxin in the presence of compounds for 30 minutes at 37 degrees C, 5% CO2. The detection reagents were prepared individually by dilution in Lysis buffer (supplied with the assay kit) just prior to dispensing. 1microl/well of cAMP-d2 and 1microl/well anti-cAMP-Eu3+-Cryptate antibodies were added simultaneously with BioRAPTR FRDtrade mark Workstation (Beckman Coulter). The plates were incubated at ambient temperature for 30 minutes and, then, FRET signal was read on Envision plate reader (PerkinElmer, Waltham, MA), at wavelengths 340nm (excitation), 615nm & 665nm (emission of donor and acceptor channels respectively).
On to `COc1cc(C(=O)NCC2(N(C)C)CCCCC2)ccc1OC(F)F`, for which the activity change, negative = inhibition is inactive: 17%. For `CCOC(=O)N1CCC(Nc2cccc(C)c2)CC1` the value was inactive: -5.8%; for `CCOC(=O)N1CCC(Nc2ccc(F)cc2)CC1`, inactive: 10.2%; for `COc1ccc(NC2CCN(CCc3ccccc3)CC2)c(OC)c1`, inactive: 0.893%. For `O=C(NCC1(N2CCCCC2)CCCCC1)c1ccc(F)cc1` the value was inactive: -14.4%. For `CCCCOc1ccc(C(=O)NCC2(N3CCOCC3)CCCCC2)cc1`, the activity change, negative = inhibition is inactive: -4.37%. Regarding `O=P1(N(CCCl)CCCl)SCCCS1`, the activity change, negative = inhibition was inactive: 2.15%. For `CCOc1ccc(C)cc1CN(CCCl)CCCl` the value was inactive: 1.74%; for `CCOC(=O)N1CCC(Nc2ccc(OC)cc2)CC1`, inactive: 4.86%. With `O=C1C(O)=C([N+](=O)[O-])C(=O)C(O)=C1[N+](=O)[O-]`, the activity change, negative = inhibition is inactive: -1.93%. For `COc1ccc(Cl)cc1C(=O)NCC1(N2CCOCC2)CCCCC1` the value was inactive: -6.33%; for `O=C(OC1CN2CCC1CC2)C1c2ccccc2Oc2ccccc21` (centres undefined), inactive: -10.5%.

`N#CC1(Nc2ccccc2)CCN(Cc2ccccc2)CC1`: the activity change, negative = inhibition is inactive: 3.06%.

Consider `O=C(NCC1(N2CCCCC2)CCCCC1)c1ccc(Cl)s1`, for which the activity change, negative = inhibition was inactive: -13.6%.

For `O=C(NCC1(N2CCOCC2)CCCCC1)c1cc2ccccc2o1`, the activity change, negative = inhibition is inactive: -16.5%. Regarding `Cc1cc(C)cc(N(C(=O)c2ccccc2)C2CCN(C(=O)OC(C)(C)C)CC2)c1`, the activity change, negative = inhibition was inactive: -33.3%. Take `O=C(NCC1(N2CCCCC2)CCCCC1)c1ccc(Cl)nc1`: the activity change, negative = inhibition is inactive: 11.7%. For `CCOC(=O)N1CCC(=O)CC1`, the activity change, negative = inhibition was inactive: 3.82%. Turning to `Cc1cccc(NC2(C#N)CCN(Cc3ccccc3)CC2)c1`, the activity change, negative = inhibition is inactive: -11.7%. For `O=C(NCC1(N2CCCCC2)CCCCC1)c1cccs1`, the activity change, negative = inhibition is inactive: 4.44%. `O=C(NCC1(N2CCCCC2)CCCCC1)c1ccc(=O)[nH]c1`: the activity change, negative = inhibition is inactive: -5.89%. With `CC(C)(C)OC(=O)N1CCC(N(C(=O)c2ccccc2)c2ccc(F)cc2)CC1`, the activity change, negative = inhibition is inactive: 2.87%. As for `COc1ccc(C(=O)NCC2(N3CCCCC3)CCCCC2)c(OC)c1OC`, the figure is inactive: 11.8%. Consider `COc1ccc(C(=O)NCC2(N3CCCCC3)CCCCC2)cc1`, for which the activity change, negative = inhibition is inactive: -5.79%. For `CCCOc1ccc(C(=O)NCC2(N(C)C)CCCCC2)cc1OC` the value was inactive: 13.6%; for `Cc1ccc(C(=O)NCC2(N(C)C)CCCCC2)o1`, inactive: 0.959%; for `CCCCOc1ccccc1C(=O)NCC1(N2CCOCC2)CCCCC1`, inactive: -29.5%. As for `O=[N+]([O-])c1cc([N+](=O)[O-])c(Nc2ccc(Cl)cc2)c([N+](=O)[O-])c1`, the activity change, negative = inhibition was inactive: -5.03%. As for `O=C(NCC1(N2CCCCC2)CCCCC1)c1cncc(Br)c1`, the figure is inactive: -5.74%; as for `CN1CCC(Nc2cccc(F)c2)CC1`, inactive: -1.62%.

Take `O=C(OC1CN2CCC1CC2)c1ccc([N+](=O)[O-])cc1` (centres undefined): the activity change, negative = inhibition is inactive: -18.9%. Regarding `O=C(NCC1(N2CCOCC2)CCCCC1)c1cc(F)c(F)cc1Cl`, the activity change, negative = inhibition was inactive: -4.36%. For `COc1cc(OC)c(C(=O)NCC2(N(C)C)CCCCC2)cc1OC` the value was inactive: 0.415%.

`CN(C)c1cccc(C(=O)NCC2(N3CCCCC3)CCCCC2)c1`: the activity change, negative = inhibition was inactive: 6.77%. For the compound `O=[N+]([O-])c1cc([N+](=O)[O-])c(OC2CCCCC2O)c([N+](=O)[O-])c1` (centres undefined), the activity change, negative = inhibition was inactive: -8.07%. As for `COc1ccc(CN(CCCl)CCCl)cc1Cl`, the figure is inactive: -10.9%; as for `CC(C)c1ccc(C(=O)NCC2(N3CCOCC3)CCCCC2)cc1`, inactive: -22.8%. For the compound `COc1ccc(NC2CCN(C(=O)OC(C)(C)C)CC2)cc1`, the activity change, negative = inhibition is inactive: 1.69%. As for `O=C(NCC1(N2CCOCC2)CCCCC1)c1cc(=O)[nH]c2ccccc12`, the figure is inactive: 3.49%; as for `COc1cc(C(=O)NCC2(N3CCCCC3)CCCCC2)ccc1OC(F)F`, inactive: -12.3%. For `O=C(NCC1(N2CCCCC2)CCCCC1)c1cccc(C(F)(F)F)c1` the value was inactive: -10.6%; for `CCCOc1cccc(C(=O)NCC2(N3CCOCC3)CCCCC2)c1`, inactive: -16.4%. For the compound `O=[N+]([O-])c1cc([N+](=O)[O-])c(NCC2CCS(=O)(=O)C2)c([N+](=O)[O-])c1` (centres undefined), the activity change, negative = inhibition is inactive: -20%.

Regarding `CSc1ccc(C(=O)NCC2(N3CCOCC3)CCCCC2)cc1`, the activity change, negative = inhibition is inactive: -7.12%. In the case of `O=C(NCC1(N2CCCCC2)CCCCC1)c1cccc([N+](=O)[O-])c1`, the activity change, negative = inhibition is inactive: 3.09%. On to `N#CC1(Nc2ccccc2)CCN(CCc2ccccc2)CC1`, for which the activity change, negative = inhibition was inactive: -6.74%.

Take `CCN1CCC(Nc2ccc(Cl)cc2)CC1`: the activity change, negative = inhibition is inactive: 1.5%.

`O=C(NCC1(N2CCCCC2)CCCCC1)c1ccc(OC(F)F)cc1`: the activity change, negative = inhibition is inactive: 2.96%. In the case of `Cc1cc(N(CCCl)CCCl)ccc1C=O`, the activity change, negative = inhibition was inactive: -5.84%. As for `CCCN1CCC(Nc2cc(OC)cc(OC)c2)CC1`, the activity change, negative = inhibition was inactive: -11.5%. For `c1ccc(CN2CCC(Nc3ccccc3)CC2)cc1` the value was inactive: -0.615%; for `CN(C)C1(CNC(=O)c2cccc(C#N)c2)CCCCC1`, inactive: -0.849%; for `CCOC(=O)C(CC)C1=NC(C)(C)Cc2ccccc21.O=[N+]([O-])c1cc([N+](=O)[O-])c(O)c([N+](=O)[O-])c1` (centres undefined), inactive: -0.518%.

Take `N#Cc1ccc(C(=O)NCC2(N3CCCCC3)CCCCC2)cc1`: the activity change, negative = inhibition was inactive: -30.4%. For the compound `O=C(O)c1cccc(Nc2c([N+](=O)[O-])cc([N+](=O)[O-])cc2[N+](=O)[O-])c1`, the activity change, negative = inhibition is inactive: -5.45%. For `O=C(OC1CN2CCC1CC2)C1c2ccccc2C=Cc2ccccc21` (centres undefined) the value was inactive: -6.91%.

Turning to `CCc1cc(C(=O)NCC2(N3CCCCC3)CCCCC2)sc1C`, the activity change, negative = inhibition was inactive: 1.27%. As for `N/C(=N\O)c1c(N)no[n+]1[O-]`, the figure is inactive: -18.2%; as for `CCOC(=O)N1CCC(Nc2ccc(C)cc2)CC1`, inactive: 14%; as for `COc1ccc(C(=O)NCC2(N3CCOCC3)CCCCC2)cc1OC`, inactive: -8.26%. As for `CCC(=O)N(c1ccccc1)C1CCNCC1`, the figure is inactive: 27.1%; as for `O=C(NCC1(N2CCOCC2)CCCCC1)c1cc(Br)ccc1Cl`, inactive: 3.79%; as for `COc1cc(C(=O)NCC2(N3CCOCC3)CCCCC2)cc(OC)c1C`, inactive: 1.28%.

Turning to `CN1CCC(Nc2ccc(Cl)cc2)CC1`, the activity change, negative = inhibition is inactive: 0.175%.
